The values that follow are results of earlier work, collected in US7135196B2, “Iron compositions” (Vitra Pharmaceuticals Limited, priority 2000, dated 2006).

Take ferrous gluconate: the solubility in water entry was “poorly and slowly soluble”.
